Target: NAMPT (Homo sapiens (Human), UniProt P43490)
Details: read-out: TR-FRET Binding IC50 (μM) probe 1

Amino acid sequences for entries named in this document (tags omitted). A change or cut given only in a name is not applied to a line headed by its entry.
UniProt P43490: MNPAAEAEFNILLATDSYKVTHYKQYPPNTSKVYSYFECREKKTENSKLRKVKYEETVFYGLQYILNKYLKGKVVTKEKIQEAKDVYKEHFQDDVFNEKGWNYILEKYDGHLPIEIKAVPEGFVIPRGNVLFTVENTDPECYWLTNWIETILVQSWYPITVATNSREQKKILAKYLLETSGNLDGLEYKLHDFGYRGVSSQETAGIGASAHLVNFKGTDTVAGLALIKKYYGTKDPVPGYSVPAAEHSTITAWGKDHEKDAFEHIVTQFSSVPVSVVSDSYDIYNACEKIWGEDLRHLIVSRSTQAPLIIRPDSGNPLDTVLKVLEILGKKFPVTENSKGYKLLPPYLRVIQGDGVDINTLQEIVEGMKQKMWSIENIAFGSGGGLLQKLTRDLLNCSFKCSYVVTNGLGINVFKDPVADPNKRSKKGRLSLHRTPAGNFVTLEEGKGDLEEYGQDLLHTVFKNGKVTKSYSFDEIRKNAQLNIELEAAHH

For `O=C(NCCc1ccc(O)cc1)c1ccc(NC(=O)N2Cc3ccccc3C2)cc1` [Example 134, N-(4-{[2-(4-hydroxyphenyl)ethyl]carbamoyl}phenyl)-1,3-dihydro-2H-isoindole-2-carboxamide], the IC50 was 0.0613 µM.
`O=C(NCCc1cccc(F)c1)c1ccc(NC(=O)N2Cc3ccccc3C2)cc1` [Example 135, N-(4-{[2-(3-fluorophenyl)ethyl]carbamoyl}phenyl)-1,3-dihydro-2H-isoindole-2-carboxamide] was tested, and the IC50 was 0.0615 µM.
In the case of `O=C(Nc1cnn([C@H]2CCOC2)c1)c1ccc(NC(=O)N2Cc3ccccc3C2)cc1` [Example 136, N-[4-({1-[(3S)-tetrahydrofuran-3-yl]-1H-pyrazol-4-yl}carbamoyl)phenyl]-1,3-dihydro-2H-isoindole-2-carboxamide], the IC50 was 0.0616 µM.
`Cc1ccc2c(c1)CN(C(=O)Nc1ccc(C(=O)NCCCc3ccccc3)cc1)C2` [Example 137, 5-methyl-N-{4-[(3-phenylpropyl)carbamoyl]phenyl}-1,3-dihydro-2H-isoindole-2-carboxamide] showed an IC50 of 0.0629 µM.
`O=C(Nc1ccc(C(=O)N2CCC3(CC2)OCCO3)cc1)N1Cc2ccccc2C1` [Example 138, N-[4-(1,4-dioxa-8-azaspiro[4.5]dec-8-ylcarbonyl)phenyl]-1,3-dihydro-2H-isoindole-2-carboxamide] gave an IC50 of 0.0632 µM.
In the case of `O=C(NCCc1ccccc1)c1ccc(NC(=O)N2Cc3ccccc3C2)cc1` [Example 139, N-{4-[(2-phenylethyl)carbamoyl]phenyl}-1,3-dihydro-2H-isoindole-2-carboxamide], the IC50 was 0.0638 µM.
`COc1ccc(CCNC(=O)c2ccc(NC(=O)N3Cc4ccccc4C3)cc2)c(OC)c1` [Example 140, N-(4-{[2-(2,4-dimethoxyphenyl)ethyl]carbamoyl}phenyl)-1,3-dihydro-2H-isoindole-2-carboxamide] was tested, and the IC50 was 0.0655 µM.
`CSCCCNC(=O)c1ccc(NC(=O)N2Cc3ccccc3C2)cc1` [Example 141, N-(4-{[3-(methylthio)propyl]carbamoyl}phenyl)-1,3-dihydro-2H-isoindole-2-carboxamide] was tested, and the IC50 was 0.0656 µM.
`CCOCCNC(=O)c1ccc(NC(=O)N2Cc3ccccc3C2)cc1` [Example 142, N-{4-[(2-ethoxyethyl)carbamoyl]phenyl}-1,3-dihydro-2H-isoindole-2-carboxamide] gave an IC50 of 0.0664 µM.
`O=C(Nc1ccccc1F)c1ccc(NC(=O)N2Cc3ccccc3C2)cc1` [Example 143, N-{4-[(2-fluorophenyl)carbamoyl]phenyl}-1,3-dihydro-2H-isoindole-2-carboxamide] gave an IC50 of 0.0665 µM.
`O=C(NCCc1cccnc1)c1ccc(NC(=O)N2Cc3ccccc3C2)cc1` [Example 144, N-(4-{[2-(pyridin-3-yl)ethyl]carbamoyl}phenyl)-1,3-dihydro-2H-isoindole-2-carboxamide] was tested, and the IC50 was 0.0666 µM.
For `O=C(NCc1ccc(SC(F)(F)F)cc1)c1ccc(NC(=O)N2Cc3ccccc3C2)cc1` [Example 145, N-[4-({4-[(trifluoromethyl)thio]benzyl}carbamoyl)phenyl]-1,3-dihydro-2H-isoindole-2-carboxamide], the IC50 was 0.0692 µM.
`COc1ccc(NC(=O)c2ccc(NC(=O)N3Cc4ccccc4C3)cc2)cc1OC` [Example 146, N-{4-[(3,4-dimethoxyphenyl)carbamoyl]phenyl}-1,3-dihydro-2H-isoindole-2-carboxamide] showed an IC50 of 0.0694 µM.
For `O=C(Nc1ccc(C(=O)N2CCC(c3ccccc3F)C2)cc1)N1Cc2ccccc2C1` (stereo not shown) [Example 147, N-(4-{[3-(2-fluorophenyl)pyrrolidin-1-yl]carbonyl}phenyl)-1,3-dihydro-2H-isoindole-2-carboxamide], the IC50 was 0.0701 µM.
With `O=C(NCCCn1ccnc1)c1ccc(NC(=O)N2Cc3ccccc3C2)cc1` [Example 148, N-(4-{[3-(1H-imidazol-1-yl)propyl]carbamoyl}phenyl)-1,3-dihydro-2H-isoindole-2-carboxamide] the IC50 was 0.0702 µM.
`O=C(NCCc1cccc(Cl)c1)c1ccc(NC(=O)N2Cc3ccccc3C2)cc1` [Example 149, N-(4-{[2-(3-chlorophenyl)ethyl]carbamoyl}phenyl)-1,3-dihydro-2H-isoindole-2-carboxamide] was tested, and the IC50 was 0.0717 µM.
Compound `O=C(NCCCCO)c1ccc(NC(=O)N2Cc3ccccc3C2)cc1` [Example 150, N-{4-[(4-hydroxybutyl)carbamoyl]phenyl}-1,3-dihydro-2H-isoindole-2-carboxamide] has an IC50 of 0.0728 µM.
With `O=C(NCCCc1ccccc1)c1ccc(NC(=O)N2Cc3ccc(C(F)(F)F)cc3C2)cc1` [Example 151, N-{4-[(3-phenylpropyl)carbamoyl]phenyl}-5-(trifluoromethyl)-1,3-dihydro-2H-isoindole-2-carboxamide] the IC50 was 0.0733 µM.
Work on `O=C(Nc1ccc(CO)cc1)c1ccc(NC(=O)N2Cc3ccccc3C2)cc1` [Example 152, N-(4-{[4-(hydroxymethyl)phenyl]carbamoyl}phenyl)-1,3-dihydro-2H-isoindole-2-carboxamide] yielded an IC50 of 0.0759 µM.
`O=C(Nc1ccc2c(c1)OCO2)c1ccc(NC(=O)N2Cc3ccccc3C2)cc1` [Example 153, N-[4-(1,3-benzodioxol-5-ylcarbamoyl)phenyl]-1,3-dihydro-2H-isoindole-2-carboxamide] gave an IC50 of 0.0799 µM.
In the case of `CC(C)n1cc(NC(=O)c2ccc(NC(=O)N3Cc4ccccc4C3)cc2)cn1` [Example 154, N-{4-[(1-isopropyl-1H-pyrazol-4-yl)carbamoyl]phenyl}-1,3-dihydro-2H-isoindole-2-carboxamide], the IC50 was 0.0813 µM.
`O=C(Nc1ccc(O)cc1)c1ccc(NC(=O)N2Cc3ccccc3C2)cc1` [Example 155, N-{4-[(4-hydroxyphenyl)carbamoyl]phenyl}-1,3-dihydro-2H-isoindole-2-carboxamide] gave an IC50 of 0.0834 µM.
Compound `CCn1cc(NC(=O)c2ccc(NC(=O)N3Cc4ccccc4C3)cc2)cn1` [Example 156, N-{4-[(1-ethyl-1H-pyrazol-4-yl)carbamoyl]phenyl}-1,3-dihydro-2H-isoindole-2-carboxamide] has an IC50 of 0.0836 µM.
In the case of `COc1ccc(OC)c(NC(=O)c2ccc(NC(=O)N3Cc4ccccc4C3)cc2)c1` [Example 157, N-{4-[(2,5-dimethoxyphenyl)carbamoyl]phenyl}-1,3-dihydro-2H-isoindole-2-carboxamide], the IC50 was 0.0846 µM.
In the case of `CN(CCCc1ccccc1)C(=O)c1ccc(NC(=O)N2Cc3ccccc3C2)cc1` [Example 158, N-{4-[methyl(3-phenylpropyl)carbamoyl]phenyl}-1,3-dihydro-2H-isoindole-2-carboxamide], the IC50 was 0.0857 µM.
`CC(C)(O)CNC(=O)c1ccc(NC(=O)N2Cc3ccccc3C2)cc1` [Example 159, N-{4-[(2-hydroxy-2-methylpropyl)carbamoyl]phenyl}-1,3-dihydro-2H-isoindole-2-carboxamide] showed an IC50 of 0.0858 µM.
`O=C(Nc1ccc(C(=O)N2CCC(C(F)(F)F)CC2)cc1)N1Cc2ccccc2C1` [Example 160, N-(4-{[4-(trifluoromethyl)piperidin-1-yl]carbonyl}phenyl)-1,3-dihydro-2H-isoindole-2-carboxamide] gave an IC50 of 0.0861 µM.
`O=C(Nc1ccc(C(=O)N2CCSCC2)cc1)N1Cc2ccccc2C1` [Example 161, N-[4-(thiomorpholin-4-ylcarbonyl)phenyl]-1,3-dihydro-2H-isoindole-2-carboxamide] was tested, and the IC50 was 0.0876 µM.
In the case of `O=C(Nc1ccc(C(=O)N2CCn3cncc3C2)cc1)N1Cc2ccccc2C1` [Example 162, N-[4-(5,6-dihydroimidazo[1,5-a]pyrazin-7(8H)-ylcarbonyl)phenyl]-1,3-dihydro-2H-isoindole-2-carboxamide], the IC50 was 0.0882 µM.
For `O=C(Nc1ccc(C(=O)N2CCN(C(=O)c3ccco3)CC2)cc1)N1Cc2ccccc2C1` [Example 163, N-(4-{[4-(2-furoyl)piperazin-1-yl]carbonyl}phenyl)-1,3-dihydro-2H-isoindole-2-carboxamide], the IC50 was 0.0893 µM.
`O=C(NC1CCN(Cc2ccccc2)CC1)c1ccc(NC(=O)N2Cc3ccccc3C2)cc1` [Example 164, N-{4-[(1-benzylpiperidin-4-yl)carbamoyl]phenyl}-1,3-dihydro-2H-isoindole-2-carboxamide] was tested, and the IC50 was 0.0907 µM.
For `COc1ccc(NC(=O)c2ccc(NC(=O)N3Cc4ccccc4C3)cc2)cc1` [Example 165, N-{4-[(4-methoxyphenyl)carbamoyl]phenyl}-1,3-dihydro-2H-isoindole-2-carboxamide], the IC50 was 0.0931 µM.
`COc1cccc(NC(=O)c2ccc(NC(=O)N3Cc4ccccc4C3)cc2)c1` [Example 166, N-{4-[(3-methoxyphenyl)carbamoyl]phenyl}-1,3-dihydro-2H-isoindole-2-carboxamide] showed an IC50 of 0.0999 µM.
With `COc1ccc(NC(C)=O)cc1NC(=O)c1ccc(NC(=O)N2Cc3ccccc3C2)cc1` [Example 167, N-{4-[(5-acetamido-2-methoxyphenyl)carbamoyl]phenyl}-1,3-dihydro-2H-isoindole-2-carboxamide] the IC50 was 0.101 µM.
Work on `COc1cc(CCNC(=O)c2ccc(NC(=O)N3Cc4ccccc4C3)cc2)cc(OC)c1` [Example 168, N-(4-{[2-(3,5-dimethoxyphenyl)ethyl]carbamoyl}phenyl)-1,3-dihydro-2H-isoindole-2-carboxamide] yielded an IC50 of 0.105 µM.
For `O=C(NCCc1cccc(C(F)(F)F)c1)c1ccc(NC(=O)N2Cc3ccccc3C2)cc1` [Example 169, N-[4-({2-[3-(trifluoromethyl)phenyl]ethyl}carbamoyl)phenyl]-1,3-dihydro-2H-isoindole-2-carboxamide], the IC50 was 0.108 µM.
Compound `CCC(C)(C)NC(=O)c1ccc(NC(=O)N2Cc3ccccc3C2)cc1` [Example 170, N-{4-[(2-methylbutan-2-yl)carbamoyl]phenyl}-1,3-dihydro-2H-isoindole-2-carboxamide] has an IC50 of 0.108 µM.
`O=C(NCCc1c[nH]cn1)c1ccc(NC(=O)N2Cc3ccccc3C2)cc1` [Example 171, N-(4-{[2-(1H-imidazol-4-yl)ethyl]carbamoyl}phenyl)-1,3-dihydro-2H-isoindole-2-carboxamide] gave an IC50 of 0.11 µM.
Work on `C[C@H](O)CNC(=O)c1ccc(NC(=O)N2Cc3ccccc3C2)cc1` [Example 172, N-(4-{[(2S)-2-hydroxypropyl]carbamoyl}phenyl)-1,3-dihydro-2H-isoindole-2-carboxamide] yielded an IC50 of 0.111 µM.
`C[C@@H](NC(=O)c1ccc(NC(=O)N2Cc3ccccc3C2)cc1)c1cccc(C#N)c1` [Example 173, N-(4-{[(1R)-1-(3-cyanophenyl)ethyl]carbamoyl}phenyl)-1,3-dihydro-2H-isoindole-2-carboxamide] gave an IC50 of 0.115 µM.
